{"sequences": {"note": "The chains behind the UniProt entries cited, without tags or fusion partners.", "UniProt P03372, whole entry": "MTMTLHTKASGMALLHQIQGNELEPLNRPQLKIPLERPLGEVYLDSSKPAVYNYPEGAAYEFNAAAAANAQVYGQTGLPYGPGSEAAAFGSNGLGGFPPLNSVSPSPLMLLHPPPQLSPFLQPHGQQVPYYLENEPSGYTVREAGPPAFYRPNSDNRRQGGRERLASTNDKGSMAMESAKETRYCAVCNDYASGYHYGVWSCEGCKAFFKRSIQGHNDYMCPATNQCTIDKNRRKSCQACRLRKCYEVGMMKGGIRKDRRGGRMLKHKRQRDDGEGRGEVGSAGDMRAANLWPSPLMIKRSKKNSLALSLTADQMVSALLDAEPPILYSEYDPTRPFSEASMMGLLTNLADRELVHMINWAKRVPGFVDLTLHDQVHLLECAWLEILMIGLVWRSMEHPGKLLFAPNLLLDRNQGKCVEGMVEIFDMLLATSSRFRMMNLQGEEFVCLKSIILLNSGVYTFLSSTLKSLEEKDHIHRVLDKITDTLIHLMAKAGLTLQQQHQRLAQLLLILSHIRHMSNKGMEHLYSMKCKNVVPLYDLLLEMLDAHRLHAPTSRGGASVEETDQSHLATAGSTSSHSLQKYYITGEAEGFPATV"}, "source": "patent US12599665B2", "about": "“Gene fusions for control of genetically modified cells” (A2 Biotherapeutics, Inc., priority 2020, dated 2026)", "origin": "cited, not measured here", "molecular_target": "Estrogen receptor-α (NR3A1) (Homo sapiens, UniProt P03372)", "settings": "antagonist, Table 2; cited from earlier work", "data": [{"substance": "methyl-piperidino-pyrazole", "values": [{"measurement": "pKi", "result": "8.6)"}]}]}
